Where two headings read alike, the source gives them in different places. Some results are limits rather than exact numbers.

Protein sequences, listed by entry. Tags and fused reporters are not part of them. Residues count along the entry.
UniProt P97612, 30-579 limits assumed: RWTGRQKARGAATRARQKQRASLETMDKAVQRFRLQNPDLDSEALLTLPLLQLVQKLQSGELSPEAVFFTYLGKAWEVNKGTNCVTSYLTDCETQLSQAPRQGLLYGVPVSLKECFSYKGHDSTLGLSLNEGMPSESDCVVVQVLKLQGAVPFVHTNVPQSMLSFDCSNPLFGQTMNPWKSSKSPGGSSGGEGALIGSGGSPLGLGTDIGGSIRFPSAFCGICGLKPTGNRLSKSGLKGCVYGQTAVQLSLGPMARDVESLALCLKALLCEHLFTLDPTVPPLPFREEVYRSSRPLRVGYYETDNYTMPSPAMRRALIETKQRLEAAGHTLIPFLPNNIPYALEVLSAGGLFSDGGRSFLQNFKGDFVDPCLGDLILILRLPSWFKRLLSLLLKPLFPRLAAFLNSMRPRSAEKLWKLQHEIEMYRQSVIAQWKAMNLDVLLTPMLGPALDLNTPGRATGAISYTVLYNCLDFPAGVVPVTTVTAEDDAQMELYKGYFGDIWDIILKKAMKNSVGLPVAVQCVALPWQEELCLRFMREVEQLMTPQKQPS

The experiment concerns the target T1, purified recombinant rat FAAH (Rattus norvegicus, UniProt P97612).
T1 construct: The truncated rat FAAH (rFAAH) was expressed in E. coli and purified as described; made in house; host or cells: Escherichia coli
Put plainly: FAAH inhibition enzyme assay (14C-oleamide hydrolysis, Dixon plot), rat enzyme. Format: biochemical.

Setting [1] is: Table 2, rat FAAH, pH 9 assay conditions, read-out: Ki.
[2] abbreviates: Table 3, rat FAAH, read-out: Ki, μM (rat).

Take `O=C(O)c1cccc(-c2cnc(C(=O)CCCCCCc3ccccc3)s2)n1` [11g, 6-(2-(7-Phenylheptanoyl)thiazol-5-yl)-picolinic Acid]: the Ki is, setting by setting: under setting [1], 10 µM; (Table 4, read-out: FAAH Ki) 10 µM.
Turning to `COC(=O)c1nnc(C(=O)CCCCCCc2ccccc2)o1` [8h, Methyl 5-(7-Phenylheptanoyl)-1,3,4-oxadiazole-2-carboxylate], the Ki reads like this: (Table 4, read-out: FAAH Ki) 0.001 µM; (rat FAAH, pH 9, read-out: Ki) less than 0.01 µM.
Turning to `O=C(CCCCCCc1ccccc1)c1nnn(-c2ccccn2)n1` [15b, 7-Phenyl-1-(2-(pyridin-2-yl)-2H-tetrazol-5-yl)-heptan-1-one], the Ki reads like this: under setting [1], 0.0011 µM; under setting [2], 0.0011 µM; (Table 4, read-out: FAAH Ki) 0.0011 µM.
In the case of `COC(=O)c1nnc(C(=O)CCCCCCc2ccccc2)s1` [12h, Methyl 5-(7-Phenylheptanoyl)-1,3,4-thiadiazole-2-carboxylate], the Ki (Table 4, read-out: FAAH Ki) was determined as 0.001 µM and the Ki (rat FAAH, pH 9, read-out: Ki) is less than 0.01 µM.
`O=C(CCCCCCc1ccccc1)c1ccc(-c2ccccn2)nn1` [13b, 7-Phenyl-1-(6-(pyridin-2-yl)-pyridazin-3-yl)-heptan-1-one]: the Ki was 0.025 µM under setting [1] and 0.025 µM (Table 4, read-out: FAAH Ki).
Turning to `O=C(O)c1cccc(-c2noc(C(=O)CCCCCCc3ccccc3)n2)n1` [9g, 6-(5-(7-Phenylheptanoyl)-1,2,4-oxadiazol-3-yl)-picolinic Acid], the Ki under setting [1] amounted to 0.013 µM and the Ki (Table 4, read-out: FAAH Ki) is 0.013 µM.
Take `O=C(CCCCCCc1ccccc1)c1ncc(-c2ccccn2)s1` [11b, 7-Phenyl-1-(5-(pyridin-2-yl)-thiazol-2-yl)-heptan-1-one]: the Ki reads like this: under setting [1], 0.024 µM; (Table 4, read-out: FAAH Ki) 0.024 µM.
On to `COC(=O)c1cccc(-c2nnc(C(=O)CCCCCCc3ccccc3)s2)n1` [12f, Methyl 6-(5-(7-Phenylheptanoyl)-1,3,4-thiadiazol-2-yl)-picolinate], for which the Ki stood at 0.0077 µM under setting [1] and 0.0077 µM (Table 4, read-out: FAAH Ki).
With `O=C(O)c1cccc(-c2nnc(C(=O)CCCCCCc3ccccc3)o2)n1` [8g], the Ki is 0.014 µM under setting [1]; 0.014 µM under setting [2]; 0.014 µM (Table 4, read-out: FAAH Ki).
Regarding `O=C(O)c1cccc(-c2nnc(C(=O)CCCCCCc3ccccc3)s2)n1` [12g, 6-(5-(7-Phenylheptanoyl)-1,3,4-thiadiazol-2-yl)-picolinic Acid], under setting [1], the Ki is 0.05 µM.
Take `O=C(CCCCCCc1ccccc1)c1ncc(-c2ccccc2)o1` [7e]: the Ki was 0.08 µM under setting [1] and 0.08 µM (Table 4, read-out: FAAH Ki).
`O=C(O)c1cccc(-c2ccc(C(=O)CCCCCCc3ccccc3)nn2)n1` [13g, 6-(6-(7-Phenylheptanoyl)-pyridazin-3-yl)-picolinic Acid]: the Ki came to 0.36 µM under setting [1] and 0.36 µM (Table 4, read-out: FAAH Ki).
Regarding `COC(=O)c1cccc(-c2nc(C(=O)CCCCCCc3ccccc3)no2)n1` [10f, Methyl 6-(3-(7-Phenylheptanoyl)-1,2,4-oxadiazol-5-yl)-picolinate], the Ki came out at 0.007 µM under setting [1] and 0.007 µM (Table 4, read-out: FAAH Ki).

Source of the values: patent US8987312B2, “Alpha-keto heterocycles as FAAH inhibitors” (The Scripps Research Institute, priority 2008, dated 2015).
